The results in this text go back to BindingDB's records for doi:10.1016/s0014-2999(98)00241-6 (Mcgill University, 1998).

Protein sequences, listed by entry. Tags and fused reporters are not part of them.
UniProt P31652, whole entry: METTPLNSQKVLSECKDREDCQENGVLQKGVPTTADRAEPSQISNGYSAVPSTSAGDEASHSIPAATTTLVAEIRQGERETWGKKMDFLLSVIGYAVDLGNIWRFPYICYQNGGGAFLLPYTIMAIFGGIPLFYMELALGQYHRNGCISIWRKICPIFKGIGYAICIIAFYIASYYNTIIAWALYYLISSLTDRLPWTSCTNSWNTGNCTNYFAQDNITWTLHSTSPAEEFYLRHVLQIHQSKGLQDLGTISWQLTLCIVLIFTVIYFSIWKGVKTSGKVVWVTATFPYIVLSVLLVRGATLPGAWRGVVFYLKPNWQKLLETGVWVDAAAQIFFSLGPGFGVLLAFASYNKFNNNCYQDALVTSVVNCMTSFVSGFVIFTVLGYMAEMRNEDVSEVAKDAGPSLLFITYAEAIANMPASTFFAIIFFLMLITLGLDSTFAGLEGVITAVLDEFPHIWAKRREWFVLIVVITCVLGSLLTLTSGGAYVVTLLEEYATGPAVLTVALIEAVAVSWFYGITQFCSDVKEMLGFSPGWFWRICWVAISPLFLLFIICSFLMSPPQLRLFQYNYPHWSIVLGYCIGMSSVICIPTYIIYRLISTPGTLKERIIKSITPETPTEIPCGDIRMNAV

Structures are written as SMILES.

The target of experiment [1] is Norepinephrine transporter (Rattus norvegicus, UniProt Q9JIA2).
For experiment [2], the target named is Sodium-dependent serotonin transporter (Rattus norvegicus, UniProt P31652).

With `COc1ccc(C(CN(C)C)C2(O)CCCCC2)cc1` (stereo not drawn) [NSC_62923], the Ki (as a rule, the dissociation constant of the complex between target and ligand, obtained from inhibition or displacement) in experiment [1] is 1260 nM.
As for `Fc1ccc([C@@H]2CCNC[C@H]2COc2ccc3c(c2)OCO3)cc1` [PAROXETINE], the inhibitory constant (Ki) in experiment [2] was found to be 0.04 nM.
As for `CNCC[C@H](Oc1cccc2ccccc12)c1cccs1` [DULOXETINE], the Ki in experiment [1] came to 3 nM.
